In patent publication US20090082276A1 (priority 2006, published 2009):

Settings: remaining active peptide estimated as EC50, 4C/EC50, 37C

SMILES: CCCCCCCCCCCCCCCC(=O)N[C@@H](CCC(=O)NCCCC[C@H](NC(=O)[C@@H]1CCCN1C(=O)[C@@H]1CCCN1C(=O)[C@@H]1CCCN1C(=O)[C@H](C)NC(=O)CNC(=O)[C@H](CO)NC(=O)[C@H](CO)NC(=O)[C@@H]1CCCN1C(=O)CNC(=O)CNC(=O)[C@H](CCCN)NC(=O)[C@H](CCCN)NC(=O)[C@@H](NC(=O)C(C)(C)NC(=O)[C@H](CCC(N)=O)NC(=O)C(C)(C)NC(=O)[C@H](Cc1ccc(O)cc1)NC(=O)[C@H](CCCN)NC(=O)C(C)(C)NC(=O)[C@H](CC)NC(=O)[C@H](C)NC(=O)[C@H](CC(C)C)NC(=O)[C@H](CCC(N)=O)NC(=O)C(C)(C)NC(=O)[C@H](CCCNC(=N)N)NC(=O)[C@H](CC(C)C)NC(=O)[C@H](CCCN)NC(=O)[C@@H](NC(=O)[C@H](Cc1ccc(OC)cc1)NC(=O)[C@H](CCC(N)=O)NC(=O)[C@H](CCC(=O)O)NC(=O)[C@@H](NC(=O)[C@H](Cc1ccccc1)NC(=O)[C@@H](NC(=O)[C@H](C)NC(=O)[C@H](CC(=O)O)NC(=O)[C@H](CO)NC(=O)[C@H](Cc1c[nH]cn1)NC(=O)CCCCC)C(C)C)[C@@H](C)O)[C@@H](C)O)[C@@H](C)CC)C(N)=O)C(=O)O [Agonist P603]
- Estimated peptide stability after 24 h in rat serum at 37° C., % stab: 67%
